The text below walks through data of PMC8406172, “Mechanism of DNA Interaction and Translocation by the Replicase of a Circular Rep-Encoding Single-Stranded DNA Virus” (mBio, 2021).

The kcat is the maximal rate divided by the concentration of active sites.

The data set concerns Nc1ncnc2c1ncn2[C@@H]1O[C@H](COP(=O)(O)OP(=O)(O)OP(=O)(O)O)[C@@H](O)[C@H]1O. As to the kind of experiment: purified protein. The settings on record: 66 nM Rep, room temperature; copurifying DNA present.

For “PCV2 Rep (replicase) (Porcine circovirus 2)”, the K0.5 is 261.1 µM and the kcat worked out at 0.63 s⁻¹.
